In PMC10767396, “Structure‐Based Discovery of A Small Molecule Inhibitor of Histone Deacetylase 6 (HDAC6) that Significantly Reduces Alzheimer's Disease Neuropathology” (Advanced Science, 2023):

Key:
[1] = system: 3D human neural stem cell model of AD (ReNcell VM); test: MSD phospho (Thr231)/total tau and Aβ (6E10) assay in 3D-AD culture; assay type: cell-based; settings: PB118 1 or 5 µM, 3 weeks
Protocol: Human precursor ReN cells were used to prepare 3D AD environment following previous work.^[ [30] ^] Briefly, for 3D layers of cells, BD Matrigel stock solution (BD Biosciences) was diluted with ReN cell differentiation medium (in 1:15 dilution) (chilled) followed by vertexing with the cell pellets for 20 s. A final cell concentration of ≈2 × 10^6 cells mL^−1 was used and this cell/ Matrigel mixtures were immediately transferred ([…] in each) into an Optilux clear bottom 96‐well plates (BD Biosciences). A thin layer ([…]) of 3D gels was formed at the bottom of the plates after incubating the plates at 37 °C for 1 h and the media were changed. For differentiation before drug treatment, 3D‐plated cells were cultured for 6 weeks, and the media were changed every 3–4 days. […] Supernatants were collected and further analyzed by MSD immunoassay kit and western blot analysis.
(§1) MSD immunoassays are quite robust and based on combining multiarray technology and electrochemiluminescence to identify numerous proteins in a single sample. […] Also, the change in different inflammatory cytokines levels was measured by multiplex MSD‐cytokines assay after inducing the cells with lipopolysaccharides (LPS) and treating with different concentrations of PB118. […]

HDAC6 enzyme = settings: HDAC6 vs HDAC1
Protocol: Compounds were tested in a single well for each dilution, and the final concentration of DMSO in all assays was kept at 1%.

BV2 cells = test: Microglial Aβ phagocytosis, MSD Aβ peptide panel 1 (4G8); assay type: cell-based, murine; settings: Aβ42 2 µg/mL + PB118 500 and 1000 nM, 6 h
Protocol: This study utilized microglial BV2 cells and tested the newly developed PB118 to see whether it could reduce microglia‐related neuroinflammation using lipopolysaccharide (LPS), a well‐characterized inflammatory inducer. Briefly, for microglia‐related amyloid (Aβ) phagocytosis study, BV2 cells were seeded in a 6‐well confocal dish (400k cells mL^−1) and cultured overnight for ≈90% confluency. Then, cells were treated with DMSO (vehicle) and Aβ (2 µg mL^−1) alone or in combination with 500 and 1000 nM of PB118 in serum‐free complete media for 6 h. Then, media were collected to perform the LDH assay for cell cytotoxicity assessment. Cells were washed carefully with PBS (2x) and lysed by adding 200 µL of MPER++ (10 mL MPER with 1% protease cocktail inhibitor and 1% EDTA) in each well. Cell lysates were collected in 1.5 mL Eppendorf tube and centrifuged at 12 000 rpm at 4 °C for 15 min and supernatants were collected for further studies. Total protein was quantified using the BCA protein assay kit (Pierce). […]
as §1

O=C(NO)c1ccc(CN2CCCCc3ccccc32)c(F)c1 [PB118]
ratio of Aβ42/Aβ40 [1]: did not change | ratio of p-tau/total tau [1]: not changed | selectivity towards HDAC6 compared to HDAC1 (HDAC6 enzyme): > 1000 times | Aβ42/Aβ40 ratio in cell lysates (BV2 cells): did not find significant changes
